From PubChem BioAssay
MmCpn inh: blocks the Methanococcus maripaludis chaperonin Mm-Cpn. 330,000 compounds, 0.031% hits. purified Mm-Cpn ATPase, ADP Transcreener TR-FRET. AID 504842. Potency, µM (highest dose often 76.9 µM), hits mostly inhibitors; active = well fitted inhibition curve with a large enough effect; inconclusive = small, poorly fitted or top-dose-only effect; also: nearly all actives have a fitted effect of over 80% in size
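Compound-treated chaperonin, 25 nM final, turns over 10 uM ATP at 37°C for 30 min following a 10 min preincubation; ADP generated competes with ADP-d2 for Eu-cryptate antibody, lowering FRET.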
KCNH2 3.1 block: blocks the human KCNH2 3.1 channel isoform; AID 720553; activity change, % (tested at about 1.8 µM); 340,000 compounds, 0.95% hits; U2OS KCNH2 3.1, thallium flux FluxOr; stronger effect = lower value;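 active = maximum activity change below -70%; inconclusive = maximum activity change from -70% to -50%; inactive = maximum activity change above -50%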;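 also: thallium influx rate constant from kinetic fluorescence after stimulation buffer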
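Kinetic fluorescence (2 min after stimulation buffer) measures Tl+ influx through KCNH2 3.1 expressed by viral transduction in U2OS cells; the rate constant is normalized against DMSO controls serving as positive and negative references.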
Rango dissoc inh: inhibition of RanGTP-driven Rango-importin beta dissociation | 340,000 compounds, 0.071% hits | Biochemical FRET Rango-importin beta, RanGTP-induced dissociation | AID 540253 | Potency, µM (highest dose often 46.1 µM) | O95149+P62826; also: nearly all actives have a fitted effect of over 45% in size
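Compounds preincubate 5 min with complex of recombinant Rango and importin beta in PBS with 1 mM DTT. Ran (0.6 uM) loaded with 2 mM GTP plus 0.2 uM RCC1 starts dissociation; FRET is recorded 45 min later.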
Rango-impB inh: prevents formation of the Rango-importin beta complex | Q14974 | Rango CFP/YFP FRET sensor + importin beta, 45 min | Potency, µM (series often up to 92.2 µM) | 340,000 compounds, 0.031% hits | AID 540263; also: nearly all actives have a fitted effect of over 15% in size
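FRET biosensor (snurportin 1 IBB flanked by EYFP and cerulean), 50 nM, with compound 5 min, then 0.125 microM importin beta in PBS, 1 mM DTT, 0.02% Tween-20, 0.1% BSA. CFP/YFP ratio read after 45 min at room temperature; pre-read flags interference.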
CCT chaperon mod: changes cytosolic chaperonin activity. purified chaperonin ATPase assay, HTRF ADP detection, 30 min. activity change, % (no concentration beside the values), hits read low. 360,000 compounds, 0.3% hits. AID 651819; in the data active = activity change below about -30%
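TRiC at 40 or 20 nM final (batch-dependent) in 30 mM Tris pH 7.4, 100 mM KCl, 5 mM MgCl2, 1 mM DTT, with compound at single 76 uM and 10 uM ATP, 30 min at 37 deg C. ADP detected by HTRF Transcreener, 665/615 ratio.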
hERG WT inh: inhibitors of human wildtype KCNH2 potassium channel. Q12809. activity change, % at 1.84 µM. 340,000 compounds, 0.37% hits. U2OS, BacMam KCNH2, thallium flux FluxOr; stronger effect = lower value;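 active = maximum activity change below -70%; inconclusive = maximum activity change between -70% and -50%; inactive = maximum activity change above -50%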
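U2OS cells transduced with wild-type KCNH2 virus are loaded with FluxOr dye for 45 min, and thallium flux is measured in kinetic reads before and after stimulation buffer. Rate constants are normalized to DMSO controls.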
Of the large screens only hits and unclear results are named; the others gave an inactive call. This is a sample that favours compounds with a hit; in the whole collection about 1.4% have one here. Unless noted, calls follow the shape of the full dose curve.

CSc1ccc(CN(C)C(C)C(=O)NCc2ccccc2)cc1 (centres undefined)	none
C/C(O)=C(/C=NCC(=O)O)C(=O)Nc1nccs1	none
COc1cc2c(cc1OC)C1O[C@](CCCCN3C(=O)c4ccccc4C3=O)(C2)OC2=C1C(=O)CC(C)(C)C2	none (no result: KCNH2 3.1 block, Rango dissoc inh, Rango-impB inh, CCT chaperon mod, hERG WT inh)
CN1CCN(CCNC(=O)Nc2ccc(Cl)cc2)CC1	none
COc1cc(NC(=O)NCCN2CCN(c3ccc(Cl)cc3)CC2)ccc1C	KCNH2 3.1 block -81.5
CC(C)c1ccc(Nc2n[nH]c(=S)s2)cc1	CCT chaperon mod -62.7 (no result: MmCpn inh, KCNH2 3.1 block, Rango dissoc inh, Rango-impB inh, hERG WT inh)
Cc1cc(C)cc(Cn2cc(CN3CC(N4CCSCC4)CS3(=O)=O)nn2)c1 (centres undefined)	none (no result: MmCpn inh, KCNH2 3.1 block, Rango dissoc inh, Rango-impB inh, hERG WT inh)
Cc1cc(NC(=O)CN(C)CC(=O)Nc2ccc(Cl)cc2)no1	KCNH2 3.1 block -119.8, Rango-impB inh inconclusive
O=C(CN1C(=O)CCSc2ccccc21)Nc1ccccc1	none
O=C(CN1C(=O)CCSc2ccccc21)NC1CCCCC1	CCT chaperon mod -35.7
O=C(CSc1ccccn1)NC1CCCc2c1cnn2-c1ccccc1F (centres undefined)	none (no result: MmCpn inh, Rango dissoc inh, Rango-impB inh)
CCCN(C)C1CN(Cc2cn(Cc3ccc(C)cc3)nn2)S(=O)(=O)C1 (centres undefined)	none (no result: MmCpn inh, KCNH2 3.1 block, Rango dissoc inh, Rango-impB inh, hERG WT inh)
CC[n+]1ccccc1/C=C/c1ccc(N(C)C)cc1	Rango dissoc inh inconclusive, Rango-impB inh 8.2µM
CC(=O)NCCNc1nc2cc(-c3ccc(Cl)cc3C)sc2c(=O)n1C	none (no result: MmCpn inh, KCNH2 3.1 block, Rango dissoc inh, Rango-impB inh, hERG WT inh)
Cc1cc(C)cc(OCCn2ccnc2)c1	CCT chaperon mod -73.3
CCCCNc1nc2cccnc2s1	KCNH2 3.1 block -129.5
O=C(O)c1ccnc2c(O)cccc12	none (no result: KCNH2 3.1 block, Rango dissoc inh, Rango-impB inh, CCT chaperon mod, hERG WT inh)
CN(Cc1ccccc1)C(=O)c1ncn(Cc2ccccc2)c1C(=O)N(C)Cc1ccccc1	KCNH2 3.1 block -71.6
CN(Cc1ccccc1)C(=O)c1ncn(C)c1C(=O)N(C)Cc1ccccc1	none (no result: KCNH2 3.1 block, hERG WT inh)
Cc1onc(-c2ccccc2Cl)c1C(=O)NC1CCCCCC1	none
CC(NC(=O)C(=O)N1CCOCC1)C(c1cccs1)N1CCN(c2ccccc2F)CC1 (centres undefined)	KCNH2 3.1 block -122.2
COc1ccc(CCNS(=O)(=O)c2cc3c4c(c2)C(C)C(=O)N4CCC3)cc1OC (centres undefined)	Rango dissoc inh 16.4µM
c1csc(-c2nnc(NC3CCCCC3)c3ccccc23)c1	none
CC1CCN(c2nnc(-c3cccs3)c3ccccc23)CC1	KCNH2 3.1 block -85.0, Rango dissoc inh inconclusive
Cc1ccnc(NS(=O)(=O)c2ccc(NC(=O)Cc3ccc(Br)cc3)cc2)n1	none
CCCCCC(=O)Nc1cccc2ccccc12	none
CCCC(=O)Nc1ccccc1NC(C)=O	CCT chaperon mod -30.8
S=c1[nH]nc(-c2cccnc2)o1	MmCpn inh inconclusive
S=c1[nH]nc(-c2cccc(Br)c2)o1	MmCpn inh 31.6µM
O=C(N/N=C/c1ccc(O)cc1O)/C(=C/c1ccccc1)CCO	Rango dissoc inh inconclusive, Rango-impB inh inconclusive, CCT chaperon mod -35.1
COc1cc(/C=N/NC(=O)/C(=C/c2ccccc2)CCO)ccc1O	none
CN(C)/C=C/C(=O)c1ccccc1OCc1cnc(Cl)s1	Rango-impB inh inconclusive (no result: hERG WT inh)
Cc1ccc(CS(=O)(=O)CCC(=O)NCc2ccccc2Cl)cc1	KCNH2 3.1 block -72.6, Rango dissoc inh inconclusive
COc1ccccc1CNC(=O)CCS(=O)(=O)Cc1ccc(C)cc1	none
NC(=O)CC(NC(=O)Cc1ccc(Br)cc1)c1ccc(NCC2CC2)c([N+](=O)[O-])c1 (centres undefined)	KCNH2 3.1 block -82.2
NC(=O)CC(NC(=O)Cc1ccc(Cl)cc1)c1ccc(NCC2CC2)c([N+](=O)[O-])c1 (centres undefined)	hERG WT inh -194.5
COC(=O)c1cc(S(=O)(=O)N2CCCCC2)c[nH]1	none
O=C(Nc1ccc(CN2CCOCC2)cc1)c1ccc(Br)cc1	none
O=C(Nc1ccc(CN2CCOCC2)cc1)c1ccc(-c2ccc(Br)cc2)o1	KCNH2 3.1 block -103.0
O=C(Nc1cccc(NC(=O)c2ccc(-c3ccc(Br)cc3)o2)c1)c1ccccc1	KCNH2 3.1 block -93.7
Fc1cccc(CNc2ncnc3ccc(-c4ccoc4)cc23)c1	none (no result: KCNH2 3.1 block, Rango dissoc inh, Rango-impB inh, CCT chaperon mod, hERG WT inh)
CCCCOP(=O)(OCCCC)C1(NS(=O)(=O)c2ccccc2)C=CC(=O)c2ccccc21 (centres undefined)	KCNH2 3.1 block -81.8
O=C(NCCc1ccncc1)Nc1ccc(Cl)c(Cl)c1	KCNH2 3.1 block -82.1
CCN(CC)CCn1c(=S)[nH]c2cc(C(=O)NCc3ccccc3Cl)ccc2c1=O	none
CN(C1CCCCC1)S(=O)(=O)c1ccc(=S)[nH]c1	none
CCCNC(=O)Nc1ccc(C)cc1C	CCT chaperon mod -45.3
CC(=O)Nc1ccc(NC(=O)Nc2ccc(C)cc2C)cc1	none
Cc1ccc(NC(=O)CCC(=O)NNC(=O)C(C)(C)C)c(C)c1	CCT chaperon mod -92.3
